# Ab-91 heavy chain CDR variants: yeast mating affinities

Reference: Engelhart et al. 2022, doi:10.1038/s41597-022-01779-4. File: FLAb, binding data.

Target: peptide PDVDLGDISGINAS, taken from heptad repeat 2 (HR2) of SARS-CoV-2 spike.

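The starting antibody came from a phage panning campaign against this peptide. Variants in AAYL51 differ from the parent at up to three CDR positions; double and triple changes were sampled at random. Affinity was read by AlphaSeq, a pooled yeast mating assay with surface-displayed partners. After mating in shaken culture at 30 °C for 16 h, diploids were selected and their barcode pairs sequenced. Scores were corrected for input abundance and mapped to Kd with protein pairs of known affinity run in the same pool. The assay was run in three technical replicates.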

Parent scFv Ab-91: VL joined to VH by a 15-residue (Gly4Ser)3 linker. Changes lie in the heavy chain CDRs alone.
VL: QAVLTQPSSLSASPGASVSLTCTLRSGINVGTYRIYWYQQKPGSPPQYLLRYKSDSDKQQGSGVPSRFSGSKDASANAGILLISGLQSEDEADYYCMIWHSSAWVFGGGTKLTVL
VH: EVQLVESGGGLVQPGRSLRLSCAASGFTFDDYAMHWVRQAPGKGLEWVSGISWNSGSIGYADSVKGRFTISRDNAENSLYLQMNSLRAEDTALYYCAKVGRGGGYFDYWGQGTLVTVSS

Each variant is given by its three heavy chain CDRs, as the data file delimits them; those of the parent are GFTFDDYAMH, GISWNSGSIGYADSVK, VGRGGGYFDY.
Scale: log10 of Kd in nM, estimated from mating counts; low values are strong binders.
A mean of the replicates is given; it leaves out those without a signal.
An entry "no signal" has no value in the source: the pair was not observed among the diploids in any replicate. This suggests poor binding but is not conclusive.
The list is sorted by this average, lowest first, undetected variants last.
Empty control strains, which show no peptide, gave a signal in 21% of pairings with library AAYL51; the median was 4.54 and 95% of these signals were weaker than 3.26. No background was subtracted.

CDR-H1,CDR-H2,CDR-H3,mean log10 Kd (nM),replicates with signal
GFTFHDYSMH,GISWNSMSIGYADSVK,VGRGGGYFDY,1.46,3/3
GFTFDDYAMH,GISLNSGSIGYADSVN,VGPGGGYFDY,1.57,3/3
GFTFDDYAMH,GISWNSWMIGYADSVK,VGRGGGRFDY,2.09,3/3
GFTFDSYAMH,GLSWNSGSFGYADSVK,VGRGGGYFDY,2.14,3/3
KFIFDDYAMH,GISGNSGSIGYADSVK,VGRGGGYFDY,2.60,3/3
GNTFDDYAMH,GISGNSHSIGYADSVK,VGRGGGYFDY,3.05,3/3
GFTFNDYAMH,GISWNSGSIGYADSVK,VGRGGGHFDY,3.18,2/3
GFTFDDYAMQ,GIMWNSGYIGYADSVK,VGRGGGYFDY,3.48,1/3
GFIFDDYAMH,GISWNSGSILYADSVK,VGRGGGYFDL,3.72,3/3
GFTFDGEAMH,GISWNSGSIGYADSMK,VGRGGGYFDY,3.74,1/3
GFTFDDYAMH,GISWNSGSIAYADGVK,VGRGGGTFDY,3.81,1/3
GFCFDDYAMH,GISWNSGSIGYADSVK,VGRIGGYFLY,3.90,1/3
GFTFDDYLMH,GISWNSGSIGYADSVK,VGRGHGYCDY,3.93,2/3
GFTFDDYAMH,GISWDSGSIGYADSVK,VGRRGGDFDY,4.20,3/3
GFWGDDYAMH,GISNNSGSIGYADSVK,VGRGGGYFDY,4.21,2/3
GFTFDDYAML,GISWNSGSAGYADSVK,VGRGGGYFDY,4.26,2/3
EFTFDDYAMH,GIYWNSGSIGYIDSVK,VGRGGGYFDY,4.35,1/3
GFTFDDYAMH,GWSWNSGWIGYADSYK,VGRGGGYFDY,4.44,3/3
GFTFDDFAML,GISWGSGSIGYADSVK,VGRGGGYFDY,4.48,1/3
GFTFDDYSMW,GISWNSGSIGQADSVK,VGRGGGYFDY,4.49,2/3
GFTFDDYAMH,GISWNSGSIHYADSVY,VGRGGGSFDY,4.54,2/3
GFTHDDYSMH,GISWNSGSIGYADSVK,VGRGGWYFDY,4.57,1/3
GFTFDDYAMH,GMSWNSISIAYADSVK,VGRGGGYFDY,4.58,1/3
GETFDDYAMH,GISWNSGSIGYADSVK,VGRGKGYFDY,4.58,1/3
NFTFDDYAMH,GISWNSGSIGYADSVK,VGRGGGYFML,4.63,2/3
GFTFDDYAPH,GISWNSGNIGYADSVK,VGRGGGYFDY,4.67,2/3
GFTFDDYAMH,NISWESGSIGYADSVK,VSRGGGYFDY,4.68,3/3
GFTFDDYAMH,GISWNSGSEGYADSWK,VWRGGGYFDY,4.76,1/3
GTTFDDYAMH,NISWNSGSIGYADSVA,VGRGGGYFDY,4.88,1/3
GFTLDDYAMH,GITWNSGSIGYADSVK,VGRGGGYFDY,4.90,2/3
GFTFYDYAMH,GISWNSGSIGYADSVK,PGWGGGYFDY,5.06,3/3
GFTFDDYAMH,GISHRSGSIGYADSVK,VGRGGGYFDP,5.07,1/3
VFTFDDYAMH,GISWNSYSIEYADSVK,VGRGGGYFDY,5.27,3/3
GFTFDDYKMH,GISWNSGSIGYRDSVD,VGRGGGYFDY,5.41,2/3
GVTFDDYAMH,GISWNSGSIGYADSVK,VYRGGGAFDY,5.59,2/3
GFTFDDYAMH,GIEWNSGPIGYADSVY,VGRGGGYFDY,5.62,1/3
GFTFDDYSMH,GISWNSGPIGYEDSVK,VGRGGGYFDY,5.85,2/3
GFTFIDYAMH,GISTNSGSIGYADSVK,VGRGGGYFDY,5.94,1/3
GFTFDDYAMH,GISWNSGSIVYADSRK,VGRGGGYFDY,no signal,0/3
GFTWDDYAMH,GISWNSGSIGYAPSVK,VGRGGPYFDY,no signal,0/3
VFTFDDVAMH,GISWNFGSIGYADSVK,VGRGGGYFDY,no signal,0/3
GFTFDDYAMI,GHSWNWGSIGYADSVK,VGRGGGYFDY,no signal,0/3
GFTFDDYAMH,GISWNSGSIGYEDSVK,VGRCLGYFDY,no signal,0/3
GFTFDDYAWH,GISWNSGSIKYADSVC,VGRGGGYFDY,no signal,0/3
GFTFTDYAMH,GISWNSGSIGLADSVK,VGRGGGYVDY,no signal,0/3
GFTFDDYAMH,GISWTSGSIGYADSRK,VGRGGGYFDY,no signal,0/3
GFTTDDYAMH,GISWNSGSIGYADSVK,VGWGLGYFDY,no signal,0/3
RFTFDDYKMH,DISWNSGSIGYADSVK,VGRGGGYFDY,no signal,0/3
GFTFDDYAMH,GISWNRGSIGYADSVN,VFRGGGYFDY,no signal,0/3
GFTFDQYAMH,GISHTSGSIGYADSVK,VGRGGGYFDY,no signal,0/3
GFTFNDYAMA,GISWNSGSIRYADSVK,VGRGGGYFDY,no signal,0/3
GFTFDDYYNH,GISWNSGSIGYADSVK,VGRGGGYFDY,no signal,0/3
GFTFDDYAMH,GFSWNSGGIRYADSVK,VGRGGGYFDY,no signal,0/3
GFTFDDYAMH,GISWNSTSIGYVDSVK,VGRTGGYFDY,no signal,0/3
GFTFDDYAMH,DISWNSGSIGYADSVK,VSRGGKYFDY,no signal,0/3
GFTFCDYAMH,GISWNDGSIGYADSVK,VGRGGGYFDY,no signal,0/3
GFTFVVYAMH,GISWVSGSIGYADSVK,VGRGGGYFDY,no signal,0/3
GFTFDEYAMH,GISWNSGSRGYADSVK,VGLGGGYFDY,no signal,0/3
GRTFDDYAMH,GISWNSGSIGYADSVK,VGRCGGYFEY,no signal,0/3
GFTFDDYAML,GISWNKGSAGYADSVK,VGRGGGYFDY,no signal,0/3
GFTFDDYAMH,GISWNSGSIGYMDSVK,VGRGEGYFNY,no signal,0/3
GFTFDDYAMQ,GISWESGSWGYADSVK,VGRGGGYFDY,no signal,0/3
GFTFDDYAMH,GISWNSGSLGYADSVK,VGRGGEYNDY,no signal,0/3
GFTFDDYAWH,GISWNCGSFGYADSVK,VGRGGGYFDY,no signal,0/3
GFTFDDYAMH,GISWNSGSIGYADSYK,VGRGGGYHRY,no signal,0/3
GFTFDDYAEH,GISWNSGSIGYAYSVK,VGVGGGYFDY,no signal,0/3
GFTFDDEAMH,GISWNSGSIGYADSKK,VGRGGGYFDY,no signal,0/3

A selection of 7 entries from above:

| CDR-H1 | CDR-H2 | CDR-H3 | mean log10 Kd (nM) | replicates with signal |
|---|---|---|---|---|
| GFTFDDYYNH | GISWNSGSIGYADSVK | VGRGGGYFDY | no signal | 0/3 |
| GFTFHDYSMH | GISWNSMSIGYADSVK | VGRGGGYFDY | 1.46 | 3/3 |
| GFTFDDYAMH | GISWTSGSIGYADSRK | VGRGGGYFDY | no signal | 0/3 |
| GFTFDDYAMH | GISLNSGSIGYADSVN | VGPGGGYFDY | 1.57 | 3/3 |
| GFTFDDYAMH | GIEWNSGPIGYADSVY | VGRGGGYFDY | 5.62 | 1/3 |
| GFTFNDYAMA | GISWNSGSIRYADSVK | VGRGGGYFDY | no signal | 0/3 |
| GFTFDDYAMH | GISWNSGSIAYADGVK | VGRGGGTFDY | 3.81 | 1/3 |

For reference, the parent read 1.86 as the reference entry and 0.88 as a member of this library.